Reference: patent US8030300B2 (dated 2011)

The chains behind the UniProt entries cited, without tags or fusion partners. Residues count along the entry.
UniProt P09483, 31-630: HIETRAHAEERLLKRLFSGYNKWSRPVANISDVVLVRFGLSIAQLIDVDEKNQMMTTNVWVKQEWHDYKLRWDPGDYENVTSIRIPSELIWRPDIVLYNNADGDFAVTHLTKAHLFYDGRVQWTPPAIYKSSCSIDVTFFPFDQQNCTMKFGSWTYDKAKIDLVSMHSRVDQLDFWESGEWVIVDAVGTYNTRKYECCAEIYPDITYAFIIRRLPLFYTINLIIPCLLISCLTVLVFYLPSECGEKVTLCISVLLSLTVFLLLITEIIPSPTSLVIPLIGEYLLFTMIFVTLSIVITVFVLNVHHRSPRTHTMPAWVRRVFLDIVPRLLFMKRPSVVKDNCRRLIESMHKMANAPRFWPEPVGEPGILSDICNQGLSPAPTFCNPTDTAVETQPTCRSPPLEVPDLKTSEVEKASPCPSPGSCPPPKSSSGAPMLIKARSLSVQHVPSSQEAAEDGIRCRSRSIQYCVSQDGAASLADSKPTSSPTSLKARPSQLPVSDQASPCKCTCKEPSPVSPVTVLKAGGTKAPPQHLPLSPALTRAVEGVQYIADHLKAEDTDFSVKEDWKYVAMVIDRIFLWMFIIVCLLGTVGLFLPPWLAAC
UniProt P12390, 25-500: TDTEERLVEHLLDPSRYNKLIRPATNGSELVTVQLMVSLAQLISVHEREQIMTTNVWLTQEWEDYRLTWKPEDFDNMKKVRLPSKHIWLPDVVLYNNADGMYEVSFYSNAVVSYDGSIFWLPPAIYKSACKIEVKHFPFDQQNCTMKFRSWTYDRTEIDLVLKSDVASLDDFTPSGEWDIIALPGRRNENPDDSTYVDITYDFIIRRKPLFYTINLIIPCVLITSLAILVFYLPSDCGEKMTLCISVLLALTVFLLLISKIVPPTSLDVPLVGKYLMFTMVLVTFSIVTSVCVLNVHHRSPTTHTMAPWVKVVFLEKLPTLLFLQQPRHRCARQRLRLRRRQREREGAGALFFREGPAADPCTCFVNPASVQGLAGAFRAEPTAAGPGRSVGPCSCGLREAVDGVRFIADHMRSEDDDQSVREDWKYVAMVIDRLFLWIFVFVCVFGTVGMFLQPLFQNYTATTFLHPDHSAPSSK

Molecular target: α4β2 nAChR subtype (Rattus norvegicus, UniProt P09483+P12390)
Assay: biochemical
Settings: Ki α4β2, Table 5; rat nAChR subtypes

`O[C@H]1C[C@H]2N[C@@H]1C[C@@H]2c1ccc(Cl)nc1` (relative stereo) [Ligand 6, 2-exo-(2-Chloro-5-pyridyl)-5-exo-hydroxyl-7-azabicyclo[2.2.1]heptane] gave a Ki of 29.3 nM.
